Measured values as given in PMC8457330 (Journal of medicinal chemistry, 2021).

Key:
[1] = tested on: SARS-CoV-2^WK-521; conditions: VeroE6 cells, tested at 1, 10 and 100 μM; cited from earlier work
[2] = tested on: SARS-CoV-2^WK-521; experiment: Immunocytochemistry of SARS-CoV-2-exposed VeroE6 cells; conditions: for number of SARS-CoV-2^wk-521-infected cells: immunocytochemistry; for infectivity and cytopathic effect of SARS-CoV-2^WK-521: MOI 0.05, 3 days (Figure 2)

| Compound | infectivity and cytopathic effect of SARS-CoV-2^wk-521 [1] | number of SARS-CoV-2^wk-521-infected cells ([2]; 100 μM compound) | infectivity and cytopathic effect of SARS-CoV-2^WK-521 [2] | number of SARS-CoV-2^wk-521-infected cells ([2]; 10 μM compound) |
| --- | --- | --- | --- | --- |
| CCC(CC)COC(=O)[C@H](C)N[P@](=O)(OC[C@H]1O[C@@](C#N)(c2ccc3c(N)ncnn23)[C@H](O)[C@@H]1O)Oc1ccccc1 [Remdesivir, reference compound] | completely blocked the infectivity and cytopathic effect | significantly reduced the number of infected cells | potently blocked the infectivity and cytopathic effect | – |
| O=C(Oc1cncc(Cl)c1)c1cccc2[nH]ccc12 [Compound 1, 5-chloropyridin-3-yl 1H-indole-4-carboxylate] | completely blocked the infectivity and cytopathic effect | essentially no infected cells | potently blocked the infectivity and cytopathic effect | significant reduction |
| O=C(Oc1cncc(Cl)c1)c1cccc2c1CCN2 [Compound 2, 5-chloropyridin-3-yl indoline-4-carboxylate] | – | essentially no infected cells | potently blocked the infectivity and cytopathic effect | significant reduction |
